{
  "sequences": {"note": "The chains behind the UniProt entries cited, without tags or fusion partners. Where a name states a change or a piece, a line headed by the entry shows the natural chain unless it says otherwise. Residues count along the entry.", "UniProt P41144": "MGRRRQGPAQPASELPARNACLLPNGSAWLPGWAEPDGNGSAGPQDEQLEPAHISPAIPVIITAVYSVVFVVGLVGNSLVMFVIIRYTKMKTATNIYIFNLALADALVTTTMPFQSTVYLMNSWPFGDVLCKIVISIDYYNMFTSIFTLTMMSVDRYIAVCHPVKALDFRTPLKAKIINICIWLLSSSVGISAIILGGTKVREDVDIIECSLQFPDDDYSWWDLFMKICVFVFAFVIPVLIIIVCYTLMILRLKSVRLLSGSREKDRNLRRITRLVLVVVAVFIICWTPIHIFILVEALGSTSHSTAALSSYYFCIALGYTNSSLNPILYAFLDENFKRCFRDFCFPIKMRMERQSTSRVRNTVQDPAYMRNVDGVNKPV", "UniProt A0ACM8Q262, 1-400": "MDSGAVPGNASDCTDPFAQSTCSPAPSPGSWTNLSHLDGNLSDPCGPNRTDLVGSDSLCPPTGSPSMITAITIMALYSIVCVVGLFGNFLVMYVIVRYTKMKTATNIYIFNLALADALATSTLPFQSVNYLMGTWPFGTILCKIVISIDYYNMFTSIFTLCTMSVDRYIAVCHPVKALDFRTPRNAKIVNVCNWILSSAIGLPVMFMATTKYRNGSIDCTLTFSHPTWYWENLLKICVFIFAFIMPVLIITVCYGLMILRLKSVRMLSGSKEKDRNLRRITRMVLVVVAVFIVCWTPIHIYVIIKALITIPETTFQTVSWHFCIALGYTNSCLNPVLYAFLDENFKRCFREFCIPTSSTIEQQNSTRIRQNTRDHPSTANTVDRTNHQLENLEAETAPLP"},
  "source": "patent US5051428A",
  "about": "“2-amino-4 or 5-methoxycyclohexyl amides useful as analgesics” (dated 1991)",
  "key": {"kappa opioid receptor [1]": {"system": "kappa opioid receptor", "conditions": "reported in literature, in words; cited from earlier work"}, "kappa opioid receptor [2]": {"biological_target": "kappa opioid receptor (Cavia porcellus, UniProt P41144)", "assay": "kappa opioid receptor binding (tritiated etorphine, guinea pig brain homogenate, DADLE and DAGO added)", "conditions": "for Opioid Binding mu/k: ratio of mu Ki to kappa Ki; for Ki: read-out: Opioid Binding (Ki nM) kappa, mean ± standard error of the mean, triplicate, at least two separate experiments"}, "mu opioid receptor": {"biological_target": "mu opioid receptor (Cavia porcellus, UniProt A0ACM8Q262)", "assay": "mu opioid receptor binding (tritiated DAGO, guinea pig brain homogenate)", "conditions": "read-out: Opioid Binding (Ki nM) mu; mean ± standard error of the mean; triplicate, at least two separate experiments"}, "rat paw pressure": {"system": "rat paw pressure", "assay": "rat paw pressure analgesia test (M. B. Tyers)", "conditions": "I.V.; dose producing 50% of maximum possible analgesic effect; single experiment, six animals per dose level"}},
  "data": [
    {"smiles": "CN(C(=O)Cc1ccc(Cl)c(Cl)c1)[C@@H]1CCCC[C@H]1N1CCCC1", "note": "(relative stereo)", "values": [
      {"measurement": "analgesic activity", "setting": "kappa opioid receptor [1]", "value": "analgesic activity without attendant dependence liability"},
      {"measurement": "kappa agonist activity", "setting": "kappa opioid receptor [1]", "value": "selective kappa agonist activity"}
    ]},
    {"smiles": "CO[C@@H]1CC[C@@H](N(C)C(=O)Cc2cccc3occc23)[C@H](N2CCCC2)C1", "note": "(relative stereo)", "values": [
      {"measurement": "Opioid Binding mu/k", "setting": "kappa opioid receptor [2]", "value": 465},
      {"measurement": "Ki", "setting": "kappa opioid receptor [2]", "value": 7.1, "unit": "nM"},
      {"measurement": "Ki", "setting": "mu opioid receptor", "value": 3300, "unit": "nM"},
      {"measurement": "Rat Paw Pressure MPE50", "setting": "rat paw pressure", "value": 0.07, "unit": "mg/kg"}
    ]},
    {"smiles": "CO[C@@H]1CC[C@@H](N2CCCC2)[C@H](N(C)C(=O)Cc2cccc3occc23)C1", "note": "(relative stereo)", "values": [
      {"measurement": "Opioid Binding mu/k", "setting": "kappa opioid receptor [2]", "value": 179},
      {"measurement": "Ki", "setting": "kappa opioid receptor [2]", "value": 24, "unit": "nM"},
      {"measurement": "Ki", "setting": "mu opioid receptor", "value": 4300, "unit": "nM"},
      {"measurement": "Rat Paw Pressure MPE50", "setting": "rat paw pressure", "value": 1.5, "unit": "mg/kg"}
    ]},
    {"smiles": "CO[C@H]1CC[C@@H](N(C)C(=O)C2c3ccccc3-c3ccccc32)[C@H](N2CCCC2)C1", "note": "(relative stereo)", "values": [
      {"measurement": "Opioid Binding mu/k", "setting": "kappa opioid receptor [2]", "value": 33},
      {"measurement": "Ki", "setting": "kappa opioid receptor [2]", "value": 0.84, "unit": "nM"},
      {"measurement": "Ki", "setting": "mu opioid receptor", "value": 28, "unit": "nM"}
    ]},
    {"smiles": "CO[C@H]1CC[C@@H](N(C)C(=O)Cc2cccc3occc23)[C@H](N2CCCC2)C1", "note": "(relative stereo)", "values": [
      {"measurement": "Opioid Binding mu/k", "setting": "kappa opioid receptor [2]", "value": 100},
      {"measurement": "Ki", "setting": "kappa opioid receptor [2]", "value": 22, "unit": "nM"},
      {"measurement": "Ki", "setting": "mu opioid receptor", "value": 2200, "unit": "nM"},
      {"measurement": "Rat Paw Pressure MPE50", "setting": "rat paw pressure", "value": 0.07, "unit": "mg/kg"}
    ]},
    {"smiles": "CO[C@H]1CC[C@@H](N2CCCC2)[C@H](N(C)C(=O)C2c3ccccc3-c3ccccc32)C1", "note": "(relative stereo)", "values": [
      {"measurement": "Opioid Binding mu/k", "setting": "kappa opioid receptor [2]", "value": 318},
      {"measurement": "Ki", "setting": "kappa opioid receptor [2]", "value": 6.7, "unit": "nM"},
      {"measurement": "Ki", "setting": "mu opioid receptor", "value": 2130, "unit": "nM"},
      {"measurement": "Rat Paw Pressure MPE50", "setting": "rat paw pressure", "value": "> 1", "unit": "mg/kg"}
    ]},
    {"smiles": "CO[C@H]1CC[C@@H](N2CCCC2)[C@H](N(C)C(=O)Cc2cccc3occc23)C1", "note": "(relative stereo)", "values": [
      {"measurement": "Opioid Binding mu/k", "setting": "kappa opioid receptor [2]", "value": 81},
      {"measurement": "Ki", "setting": "kappa opioid receptor [2]", "value": 135, "unit": "nM"},
      {"measurement": "Ki", "setting": "mu opioid receptor", "value": 11000, "unit": "nM"},
      {"measurement": "Rat Paw Pressure MPE50", "setting": "rat paw pressure", "value": 5.6, "unit": "mg/kg"}
    ]}
  ]
}
